# Columns and labels:
# [1] = biological target: LL-37 peptide (human cathelicidin peptide) (human); experiment: cell adhesion assay
# [2] = biological target: K18-37, C-terminal part of LL-37 (residues 18-37) (human); experiment: cell adhesion assay
substance,measurement,setting,value
"integrin αMβ2 (Mac-1, CD11b/CD18) on HEK293 cells stably expressing Mac-1 (from UniProt P11215 17-1152; P05107 23-769) (receptor)",percent of added cells adhered (coating concentration 2 μg/ml),[1],52%
same,"percent of added cells adhered (coating concentration 5 μg/ml, maximal adhesion)",[2],47%

# — publication PMC5157691 (Research and reports in biochemistry, 2016)
